According to the OPERA property sets (Mansouri et al. 2018):

Details: fish

SMILES: Cc1cc([N+](=O)[O-])cc([N+](=O)[O-])c1O
- log10 BCF: 0.46
